Test results reported in ChEMBL document CHEMBL1255231.
The list shows a part of the results, in another mix than the full data. Calls of active or inactive are those of the source. The calls are words filed in the database; no cut-off is given here.

Organism: Mus musculus
Experiment: Inhibition of neurosphere proliferation of mouse neural precursor cells by MTT assay
Type: functional

Row | SMILES | inhibition
1 | CN(C(=O)Cc1ccccc1)[C@H]1CC[C@@]2(CCCO2)C[C@@H]1N1CCCC1 | inactive
2 | CN(CCCl)Cc1cc(Cl)c(NC2=NCCN2)c(Cl)c1 | inactive
3 | CN(C)c1ccc(N(C)C)cc1 | inactive
4 | CN(C(=O)Cc1ccc(Cl)c(Cl)c1)[C@H]1CC[C@@]2(CCCO2)C[C@@H]1N1CCCC1 | inactive
